Measured values published in patent US8618169B2, “Derivatives of N-phenylanthranilic acid and 2-benzimidazolone as potassium channel and/or neuron activity modulators” (Ramot at Tel-Aviv University Ltd., priority 2002, dated 2013).

Target: T1, KCNQ2/3 channels (Homo sapiens, UniProt O43525+O43526)
T1 construct: expressed in transfected cells; host or cells: CHO cells
Assay: KCNQ2/3 current in transfected CHO cells, whole-cell patch-clamp
Format: cell-based

O=C(O)Cc1ccccc1Nc1c(Cl)cccc1Cl [Compound 2, diclofenac]
V50 of KCNQ2/3 activation with compound (50 μM, CHO cells, control −30.9±4.1 mV): −45.4±2.7 mV | increase of the current amplitude (50 μM, train protocol, stepped from −85 mV to −50 mV): up to 262±26% | effect on deactivation kinetics of KCNQ2/3 channels (CHO cells): slowed down
